The chains behind the UniProt entries cited, without tags or fusion partners. Residues count along the entry.
UniProt P02745, 23-245: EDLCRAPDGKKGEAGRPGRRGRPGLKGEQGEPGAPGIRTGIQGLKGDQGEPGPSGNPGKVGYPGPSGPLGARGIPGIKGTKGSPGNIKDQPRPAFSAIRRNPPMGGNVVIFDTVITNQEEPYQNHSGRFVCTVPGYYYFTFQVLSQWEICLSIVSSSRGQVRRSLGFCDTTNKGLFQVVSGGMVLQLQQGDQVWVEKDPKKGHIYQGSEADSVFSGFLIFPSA
human C1q, the first subcomponent of the C1 complex of the classical pathway of complement activation, UniProt P02746, 28-253: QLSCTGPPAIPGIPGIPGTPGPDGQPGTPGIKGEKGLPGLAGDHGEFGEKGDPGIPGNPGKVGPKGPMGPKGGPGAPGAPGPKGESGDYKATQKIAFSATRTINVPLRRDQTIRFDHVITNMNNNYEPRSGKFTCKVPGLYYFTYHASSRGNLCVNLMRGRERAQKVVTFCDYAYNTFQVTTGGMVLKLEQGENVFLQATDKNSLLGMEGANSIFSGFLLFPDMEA
human C1q, the first subcomponent of the C1 complex of the classical pathway of complement activation, UniProt P02747, 29-245: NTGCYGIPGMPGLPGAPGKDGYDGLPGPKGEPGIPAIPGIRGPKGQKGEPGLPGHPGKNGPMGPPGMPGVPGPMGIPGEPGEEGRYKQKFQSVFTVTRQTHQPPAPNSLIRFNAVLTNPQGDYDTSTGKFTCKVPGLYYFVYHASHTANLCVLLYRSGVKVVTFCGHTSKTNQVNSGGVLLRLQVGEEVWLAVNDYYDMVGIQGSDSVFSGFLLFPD

In article PMC9537296, “A novel glucagon analog with an extended half-life, HM15136, normalizes glucose levels in rodent models of congenital hyperinsulinism” (Scientific Reports, 2022):

Biological target: IgG1 (=I.V.-Globulin SN)
Test: SPR; BIACORE T200; I.V.-Globulin SN, HMC001 and HM15136 immobilised on a CM5 chip (target 3000 RU); C1q flowed over at 3.125-50 nM in running buffer (HBS-EP); steady-state affinity fit

Kd: 31.1 nM
Substance: human C1q, the first subcomponent of the C1 complex of the classical pathway of complement activation (from UniProt P02745 23-245; P02746 28-253; P02747 29-245)
